{"sequences": {"note": "Sequences of proteins named here, by UniProt entry; tags and fusion partners are left off. A line that says so, or that is headed by a name, gives the form on record, which may keep a tag or linker.", "UniProt Q9NQS3, other isoform, or with tags, fused parts or gaps limits assumed": "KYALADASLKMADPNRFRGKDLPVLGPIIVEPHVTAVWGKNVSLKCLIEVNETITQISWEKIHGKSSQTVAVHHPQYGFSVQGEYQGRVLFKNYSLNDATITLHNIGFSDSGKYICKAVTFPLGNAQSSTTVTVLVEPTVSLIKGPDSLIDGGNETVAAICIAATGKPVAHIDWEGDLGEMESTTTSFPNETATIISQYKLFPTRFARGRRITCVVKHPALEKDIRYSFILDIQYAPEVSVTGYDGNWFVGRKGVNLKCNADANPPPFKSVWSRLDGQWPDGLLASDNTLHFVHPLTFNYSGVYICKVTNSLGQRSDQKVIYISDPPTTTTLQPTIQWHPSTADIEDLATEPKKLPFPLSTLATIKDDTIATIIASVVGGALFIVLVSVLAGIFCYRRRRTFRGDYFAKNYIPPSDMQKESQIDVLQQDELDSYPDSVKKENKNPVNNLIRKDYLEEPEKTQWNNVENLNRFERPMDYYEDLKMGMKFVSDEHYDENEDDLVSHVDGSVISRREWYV"}, "source": "patent US20090258013A1", "about": "(Genentech, published 2009)", "binders": {"B1": {"name": "PVRL2-Fc (amino acids 1-360 of PVR-like protein 2 fused to the Fc region of human IgG1) (Fc fusion, UniProt Q92692 32-360, looked up)", "chain": "QDVRVQVLPEVRGQLGGTVELPCHLLPPVPGLYISLVTWQRPDAPANHQNVAAFHPKMGPSFPSPKPGSERLSFVSAKQSTGQDTEAELQDATLALHGLTVEDEGNYTCEFATFPKGSVRGMTWLRVIAKPKNQAEAQKVTFSQDPTTVALCISKEGRPPARISWLSSLDWEAKETQVSGTLAGTVTVTSRFTLVPSGRADGVTVTCKVEHESFEEPALIPVTLSVRYPPEVSISGYDDNWYLGRTDATLSCDVRSNPEPTGYDWSTTSGTFPTSAVAQGSQLVIHAVDSLFNTTFVCTVTNAVGMGRAEQVIFVRETPNTAGAGATGG", "notes": "range 1-360; also called nectin-2; not shown: Fc region of human IgG1"}}, "key": {"[1]": {"molecular_target": "T1, gD-tagged full-length PVRL3 expressed on stably transfected CHO cells (UniProt Q9NQS3 58-549, limits assumed)", "T1 construct": "whole, on cells", "assay": "competition radioligand binding, 125I Fc-ligand on receptor-expressing CHO cells, Scatchard", "experimental": "Plasmids were transfected into CHO cells using Lipofectamine LTX (Invitrogen). Expression of gD-tagged proteins was verified by flow cytometry using the Alexa-647 anti-gD conjugate. Stably-transfected cell lines were sorted twice by FACS for purity before use. Fc-fusion proteins constructed as described above were iodinated (¹²⁵I) using the Iodogen method. Binding studies were carried out on stable transfectants in triplicate with 0.1-3 nM iodinated ligand. […] Cell suspensions were harvested onto nitrocellulose membranes (Millipore) and washed extensively.\n(§1) Receptors were expressed on CHO cells, and all ligands were -Fc constructs. MFI was determined by flow cytometry with biotinylated Fc-ligands, after gating on receptor-positive cells. Binding affinity (Kd) was determined by competition radioligand binding assay. Kd is indicated (nM) and is the average value from at least 3 independent assays, except where indicated (*)."}, "[2]": {"molecular_target": "T1, gD-tagged full-length PVRL3 expressed …", "assay": "flow cytometry, biotinylated Fc-ligand on receptor-expressing CHO cells (+++ MFI = 1000-4999)", "description": "Fc fusion proteins were biotinylated via amine coupling using NHS-PEO4-Biotin (Pierce) in PBS. Binding of biotin-ligands was detected using phycoerythrin-conjugated streptavidin (Caltag). Mouse monoclonal antibody to gD tag (Genentech) was conjugated to AlexaFluor 647 (Invitrogen). Antibodies were conjugated to appropriate fluor labels using standard techniques. Cells were stained per the manufacturer's instructions. Prior to staining, cells were blocked with appropriate sera or purified IgG. Acquisition was performed on a FACSCalibur (BD Biosciences) and analyzed with JoFlo software (Tree Star, Inc.). Forward and side scatter gated viable cells.\nas §1"}}, "data": [{"binder": "B1", "values": [{"measurement": "Kd", "setting": "[1]", "value": "3 to 13", "unit": "nM"}, {"measurement": "MFI", "setting": "[2]", "value": "1000 to 5000", "unit": "mfi"}]}]}
